One test deals with RAD51 (Homo sapiens, UniProt Q06609). The test is described as follows: D-loop assay for RAD51. It counts as biochemical. The conditions noted are these: for Joint Molecules (%): compounds 100 μM.
The next test deals with RecA (Escherichia coli, UniProt P0A7G6). The conditions noted are these: read-out: IC50 (RecA); RecA 1 μM, ssDNA 3 μM, dsDNA 50 μM.
The target of a further test is RAD54 (Homo sapiens, UniProt Q92698). The test is described as follows: DNA branch migration assay for RAD54. Conditions: 0 to 200 μM.

By UniProt entry, the sequences of proteins in these tests, tags left out.
UniProt Q06609, whole entry: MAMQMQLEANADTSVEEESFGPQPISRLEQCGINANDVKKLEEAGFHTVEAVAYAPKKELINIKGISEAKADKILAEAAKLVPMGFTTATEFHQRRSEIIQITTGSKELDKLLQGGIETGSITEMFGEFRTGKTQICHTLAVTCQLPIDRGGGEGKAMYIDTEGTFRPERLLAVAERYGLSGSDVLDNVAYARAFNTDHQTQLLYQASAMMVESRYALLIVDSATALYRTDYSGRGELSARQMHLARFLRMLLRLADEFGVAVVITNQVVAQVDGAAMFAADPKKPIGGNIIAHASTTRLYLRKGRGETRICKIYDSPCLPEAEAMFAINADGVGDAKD
UniProt P0A7G6, whole entry: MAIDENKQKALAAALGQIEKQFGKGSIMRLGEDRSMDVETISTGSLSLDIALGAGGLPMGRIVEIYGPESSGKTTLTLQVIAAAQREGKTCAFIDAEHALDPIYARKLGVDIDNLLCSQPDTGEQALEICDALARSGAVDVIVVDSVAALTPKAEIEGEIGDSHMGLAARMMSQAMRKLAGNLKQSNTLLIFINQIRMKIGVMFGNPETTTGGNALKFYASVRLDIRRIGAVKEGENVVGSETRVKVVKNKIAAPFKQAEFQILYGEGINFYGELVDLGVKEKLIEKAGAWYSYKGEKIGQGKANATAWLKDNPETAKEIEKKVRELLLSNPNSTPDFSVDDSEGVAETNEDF
UniProt Q92698, whole entry: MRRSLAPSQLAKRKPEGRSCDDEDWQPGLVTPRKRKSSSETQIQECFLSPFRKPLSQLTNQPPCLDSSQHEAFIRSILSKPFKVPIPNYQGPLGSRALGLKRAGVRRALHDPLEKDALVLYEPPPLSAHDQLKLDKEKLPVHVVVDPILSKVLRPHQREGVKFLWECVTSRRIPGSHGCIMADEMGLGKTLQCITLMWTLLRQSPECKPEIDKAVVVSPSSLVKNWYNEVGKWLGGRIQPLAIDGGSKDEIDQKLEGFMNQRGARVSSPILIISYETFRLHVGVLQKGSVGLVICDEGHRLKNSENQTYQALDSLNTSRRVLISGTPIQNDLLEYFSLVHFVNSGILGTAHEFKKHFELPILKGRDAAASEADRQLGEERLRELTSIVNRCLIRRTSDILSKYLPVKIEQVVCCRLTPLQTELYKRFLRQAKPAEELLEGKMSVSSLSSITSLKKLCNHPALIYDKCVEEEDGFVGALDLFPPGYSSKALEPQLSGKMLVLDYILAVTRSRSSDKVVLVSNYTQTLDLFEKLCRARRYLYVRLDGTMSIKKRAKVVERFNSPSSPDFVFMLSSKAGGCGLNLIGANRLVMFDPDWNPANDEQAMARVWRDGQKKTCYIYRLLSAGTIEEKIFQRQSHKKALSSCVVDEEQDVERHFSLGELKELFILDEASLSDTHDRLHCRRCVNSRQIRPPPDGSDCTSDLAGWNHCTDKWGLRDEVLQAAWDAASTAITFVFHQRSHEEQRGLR

With `COc1cc(C)c2c(c1C=O)Oc1c(c(C)c(O)c3c1C(O)OC3=O)OC2=O` (stereo not drawn), the “IC50 (RecA)/IC50 (RAD51)” value on RAD51 (D-loop assay) turned out to be 1.3. The “inhibition of RAD51 versus RecA, in words” value at RAD51 (D-loop assay) is “nearly equal efficiency”. Further, the “Joint Molecules (%)” value on RAD51 (RAD51 1 μM) worked out at 6.7 ± 2.5%. For the same compound, the half-inhibitory concentration (IC50) (usually the concentration at which inhibition is half-maximal) on RAD51 (read-out: IC50 (RAD51), RAD51 1 μM, ssDNA 3 μM, dsDNA 50 μM, compound added after filament formation) is 26.6 µM; on RecA, 35.3 µM. In addition, on RAD54, the “inhibition of RAD54 branch migration, in words” value was “not to significantly inhibit”.

For the compound `Cc1cc(O)c(C=O)c2c1C(=O)Oc1c(CO)c(O)c3c(c1O2)C(O)OC3=O` (stereo not drawn), the “IC50 lower for RAD51 than for RecA” value against RAD51 (D-loop assay) came out at 5.6 fold. In addition, at RAD51 (RAD51 1 μM), the “Joint Molecules (%)” value was found to be 5.4 ± 1.9%. Besides, the IC50 on RecA came out at 187 µM.

The values are drawn from patent publication US9750742B2, “Small molecular inhibitors of RAD51 recombinase and methods thereof” (Drexel University, priority 2011, dated 2017).
